Assay results: publication PMC5925453 (EBioMedicine, 2018)

Tested on: EGFR downstream signal transduction pathways
Assay: Western blotting, gefitinib with TPX-0005, PC9 cell line
Conditions: PC9 cells; gefitinib 0.05 μM; 24 h

Compound: COc1cc2ncnc(Nc3ccc(F)c(Cl)c3)c2cc1OCCCN1CCOCC1 [Gefitinib]
- EGFR, ERK1/2 and AKT phosphorylation: suppressed
